# Laboratory results: ChEMBL document CHEMBL1134335, “Structure-activity relationships of pyridoxal phosphate derivatives as potent and selective antagonists of P2X1 receptors” (J Med Chem, 2001)
# Amino acid sequences for entries named in this document (tags omitted). A change or cut given only in a name is not applied to a line headed by its entry.
# UniProt Q9JJX6: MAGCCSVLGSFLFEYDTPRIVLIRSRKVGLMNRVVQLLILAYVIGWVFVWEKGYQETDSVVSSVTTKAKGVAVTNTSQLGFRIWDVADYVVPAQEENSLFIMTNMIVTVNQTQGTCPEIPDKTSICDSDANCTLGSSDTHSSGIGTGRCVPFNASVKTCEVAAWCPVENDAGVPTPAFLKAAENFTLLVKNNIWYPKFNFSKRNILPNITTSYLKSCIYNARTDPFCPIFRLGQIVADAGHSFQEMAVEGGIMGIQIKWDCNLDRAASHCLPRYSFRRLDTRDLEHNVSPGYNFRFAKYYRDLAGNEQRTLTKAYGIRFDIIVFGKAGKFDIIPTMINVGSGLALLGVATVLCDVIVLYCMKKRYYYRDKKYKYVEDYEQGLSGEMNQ
# UniProt Q99571: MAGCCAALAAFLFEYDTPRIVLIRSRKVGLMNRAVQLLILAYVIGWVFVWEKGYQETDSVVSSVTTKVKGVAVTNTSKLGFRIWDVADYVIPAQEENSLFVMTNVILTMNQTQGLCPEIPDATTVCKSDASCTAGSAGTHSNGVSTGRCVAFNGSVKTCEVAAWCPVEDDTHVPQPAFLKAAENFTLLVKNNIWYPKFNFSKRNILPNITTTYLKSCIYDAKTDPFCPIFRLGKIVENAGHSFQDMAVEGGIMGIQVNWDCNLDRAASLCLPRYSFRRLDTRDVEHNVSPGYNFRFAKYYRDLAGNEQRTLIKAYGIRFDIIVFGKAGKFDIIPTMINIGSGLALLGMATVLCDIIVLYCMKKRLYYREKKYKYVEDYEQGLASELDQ
# How the values were obtained:
# [1] = biological target: P2X purinoceptor 4 (Mus musculus, UniProt Q9JJX6); test: Inhibition of inward ion current elicited by ATP at mouse P2X4 receptor (mutant type); assay type: functional
# [2] = biological target: P2X purinoceptor 4 (Homo sapiens, UniProt Q99571)
structure (smiles),measurement,setting,value
Cc1nc(/N=N/c2ccc(S(=O)(=O)O)cc2S(=O)(=O)O)c(COP(=O)(O)O)c(C=O)c1O,IC50,[1],21 µM
same,IC50,[2],27.5 µM
